# Values quoted from earlier work in patent US8034843B2, “Compositions comprising cannabinoids for treatment of nausea, vomiting, emesis, motion sickness or like conditions” (priority 2002, dated 2011).
# By UniProt entry, the sequences of proteins in these tests, tags left out.
# UniProt P21554, whole entry, species assumed: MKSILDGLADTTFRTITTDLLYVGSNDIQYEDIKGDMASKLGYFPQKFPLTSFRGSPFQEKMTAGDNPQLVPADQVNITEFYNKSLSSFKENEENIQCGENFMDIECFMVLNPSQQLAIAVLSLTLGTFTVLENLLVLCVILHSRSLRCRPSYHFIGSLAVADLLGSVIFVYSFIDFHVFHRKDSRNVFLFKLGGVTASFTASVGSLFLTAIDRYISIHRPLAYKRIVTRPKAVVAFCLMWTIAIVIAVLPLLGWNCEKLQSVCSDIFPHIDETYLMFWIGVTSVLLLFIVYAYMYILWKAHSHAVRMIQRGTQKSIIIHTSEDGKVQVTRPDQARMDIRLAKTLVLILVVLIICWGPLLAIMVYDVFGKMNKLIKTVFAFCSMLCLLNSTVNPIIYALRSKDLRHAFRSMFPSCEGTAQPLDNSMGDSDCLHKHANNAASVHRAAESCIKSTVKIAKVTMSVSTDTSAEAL
# Molecular target: CB1 (Brain receptors) (Homo sapiens, UniProt P21554)
# Settings: cited from earlier work
compound,measurement,value
"C=C(C)[C@@H]1CCC(C)=C[C@H]1c1c(O)cc(CCCCC)cc1O [CBD, cannabidiol]",binding to CB1 receptors,relatively inactive
